The source of these data is patent US9637492B2, “Benzothiazole kinase inhibitors and methods of use” (Intellikine LLC, priority 2008, dated 2017).

The chains behind the UniProt entries cited, without tags or fusion partners. Where a name states a change or a piece, a line headed by the entry shows the natural chain unless it says otherwise.
UniProt P42336, whole entry: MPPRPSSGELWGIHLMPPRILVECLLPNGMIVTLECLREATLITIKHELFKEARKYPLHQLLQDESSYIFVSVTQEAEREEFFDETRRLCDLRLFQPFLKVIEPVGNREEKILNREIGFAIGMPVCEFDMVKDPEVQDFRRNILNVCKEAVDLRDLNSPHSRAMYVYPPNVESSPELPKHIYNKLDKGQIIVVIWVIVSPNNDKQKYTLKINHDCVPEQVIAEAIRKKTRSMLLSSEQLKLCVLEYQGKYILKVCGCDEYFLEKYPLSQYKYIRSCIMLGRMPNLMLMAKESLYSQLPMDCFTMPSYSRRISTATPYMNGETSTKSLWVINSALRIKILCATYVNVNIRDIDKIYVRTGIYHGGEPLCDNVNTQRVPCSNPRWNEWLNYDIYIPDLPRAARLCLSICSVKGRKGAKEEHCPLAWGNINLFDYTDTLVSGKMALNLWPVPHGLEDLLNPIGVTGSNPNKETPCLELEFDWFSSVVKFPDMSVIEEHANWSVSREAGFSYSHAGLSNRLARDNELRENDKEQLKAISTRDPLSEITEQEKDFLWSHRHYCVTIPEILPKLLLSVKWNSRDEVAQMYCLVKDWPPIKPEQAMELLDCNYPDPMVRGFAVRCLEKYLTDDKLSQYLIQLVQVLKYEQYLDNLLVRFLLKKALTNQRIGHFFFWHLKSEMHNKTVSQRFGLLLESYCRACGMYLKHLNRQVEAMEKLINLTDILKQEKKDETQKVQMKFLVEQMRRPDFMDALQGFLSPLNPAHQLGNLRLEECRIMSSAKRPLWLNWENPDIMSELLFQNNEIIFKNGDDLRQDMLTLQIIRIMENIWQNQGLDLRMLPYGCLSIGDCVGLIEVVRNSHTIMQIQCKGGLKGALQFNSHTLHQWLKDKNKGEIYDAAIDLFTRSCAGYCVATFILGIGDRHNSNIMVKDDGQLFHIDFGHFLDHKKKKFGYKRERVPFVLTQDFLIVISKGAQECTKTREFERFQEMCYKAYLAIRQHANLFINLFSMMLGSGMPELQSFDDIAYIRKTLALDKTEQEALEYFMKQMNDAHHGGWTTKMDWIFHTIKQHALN
UniProt P42338: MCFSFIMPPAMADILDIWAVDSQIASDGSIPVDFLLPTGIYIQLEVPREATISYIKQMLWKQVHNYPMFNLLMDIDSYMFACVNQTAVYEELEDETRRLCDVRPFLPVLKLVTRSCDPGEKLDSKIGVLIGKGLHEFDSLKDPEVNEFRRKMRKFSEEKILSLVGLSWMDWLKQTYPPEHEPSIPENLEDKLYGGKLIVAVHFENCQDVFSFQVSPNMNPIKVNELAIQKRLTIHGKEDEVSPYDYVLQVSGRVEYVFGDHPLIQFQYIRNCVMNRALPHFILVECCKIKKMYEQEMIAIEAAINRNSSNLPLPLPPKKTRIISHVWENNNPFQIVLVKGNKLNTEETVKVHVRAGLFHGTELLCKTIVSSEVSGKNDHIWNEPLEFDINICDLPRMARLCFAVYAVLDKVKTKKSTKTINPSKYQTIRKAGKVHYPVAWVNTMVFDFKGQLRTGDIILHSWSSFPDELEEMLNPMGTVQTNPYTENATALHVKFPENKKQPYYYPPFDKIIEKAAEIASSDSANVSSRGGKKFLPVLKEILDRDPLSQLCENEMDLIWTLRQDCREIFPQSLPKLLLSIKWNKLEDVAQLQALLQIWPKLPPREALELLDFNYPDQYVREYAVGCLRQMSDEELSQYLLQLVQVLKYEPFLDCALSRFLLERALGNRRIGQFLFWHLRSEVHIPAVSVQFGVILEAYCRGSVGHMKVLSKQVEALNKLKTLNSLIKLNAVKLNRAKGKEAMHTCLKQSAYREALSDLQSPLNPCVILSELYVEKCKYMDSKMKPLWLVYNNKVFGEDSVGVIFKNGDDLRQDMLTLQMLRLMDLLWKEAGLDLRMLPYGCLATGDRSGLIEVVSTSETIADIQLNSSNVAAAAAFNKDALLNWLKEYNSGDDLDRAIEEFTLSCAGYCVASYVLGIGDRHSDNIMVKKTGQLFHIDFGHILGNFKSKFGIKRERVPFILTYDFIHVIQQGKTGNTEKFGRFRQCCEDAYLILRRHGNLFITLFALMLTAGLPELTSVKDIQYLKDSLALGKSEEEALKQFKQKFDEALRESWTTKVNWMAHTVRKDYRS
UniProt O00329: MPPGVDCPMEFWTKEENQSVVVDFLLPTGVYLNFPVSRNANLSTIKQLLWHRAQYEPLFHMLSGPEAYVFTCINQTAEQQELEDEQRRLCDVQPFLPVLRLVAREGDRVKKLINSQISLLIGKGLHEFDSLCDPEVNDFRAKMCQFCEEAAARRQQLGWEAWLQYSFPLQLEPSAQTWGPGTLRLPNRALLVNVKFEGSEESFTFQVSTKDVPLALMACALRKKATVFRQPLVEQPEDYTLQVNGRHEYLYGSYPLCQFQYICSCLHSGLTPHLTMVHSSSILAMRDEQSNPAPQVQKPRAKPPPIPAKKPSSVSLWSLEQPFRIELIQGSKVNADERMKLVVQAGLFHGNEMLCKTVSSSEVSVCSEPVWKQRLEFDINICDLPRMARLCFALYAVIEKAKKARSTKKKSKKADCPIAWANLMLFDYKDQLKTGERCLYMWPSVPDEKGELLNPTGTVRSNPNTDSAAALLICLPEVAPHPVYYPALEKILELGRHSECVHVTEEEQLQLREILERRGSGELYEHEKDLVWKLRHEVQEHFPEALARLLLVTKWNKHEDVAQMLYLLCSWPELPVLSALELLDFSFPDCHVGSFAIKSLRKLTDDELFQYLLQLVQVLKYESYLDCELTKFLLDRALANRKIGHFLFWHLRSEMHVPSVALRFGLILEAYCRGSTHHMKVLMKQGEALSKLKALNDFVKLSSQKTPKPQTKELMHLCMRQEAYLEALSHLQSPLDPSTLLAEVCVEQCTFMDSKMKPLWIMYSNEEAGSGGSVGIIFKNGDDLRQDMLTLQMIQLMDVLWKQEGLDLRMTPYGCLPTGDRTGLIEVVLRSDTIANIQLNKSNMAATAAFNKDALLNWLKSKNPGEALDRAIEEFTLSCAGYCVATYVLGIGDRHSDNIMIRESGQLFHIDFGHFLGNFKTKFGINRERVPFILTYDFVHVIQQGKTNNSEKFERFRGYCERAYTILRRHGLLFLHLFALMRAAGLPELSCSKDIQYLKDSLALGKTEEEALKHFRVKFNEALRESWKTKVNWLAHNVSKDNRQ

Common to all, as to format: biochemical
What all share (settings): binned

For one experiment, the target named is T1, PI3K alpha (Homo sapiens, UniProt P42336).
T1 construct: purchased Upstate
Briefly: PI3K alpha inhibition assay.

In another experiment the target is T2, PI3K beta (Homo sapiens, UniProt P42338).
T2 construct: purchased Upstate
Briefly: PI3K beta inhibition assay.

The next experiment addresses T3, PI3K delta (Homo sapiens, UniProt O00329).
T3 construct: purchased Upstate
Briefly: PI3K delta inhibition assay.

By IC50 is commonly meant the concentration that gives 50% inhibition. Higher therefore signals a need for much substance. `CC(C)n1nc(-c2ccc3ncsc3c2)c2c(N)ncnc21` [Compound 2] gave an IC50 on PI3K alpha above 1 µM.
Turning to `CC(C)C(=O)Nc1nc2ccc(-c3nn(C(C)C)c4ncnc(N)c34)cc2s1` [Compound 7], the IC50 against PI3K alpha was above 1 µM.
Regarding `CC(=O)Nc1nc2ccc(-c3nn(C4CCC4)c4ncnc(N)c34)cc2s1` [Compound 10], the IC50 on PI3K beta was above 1 µM.
Same read-out and setting: in the case of `CCNc1nc2ccc(-c3nn(C(C)C)c4ncnc(N)c34)cc2s1` [Compound 12] it was above 1 µM.
Turning to `CC(=O)Nc1nc2cc(-c3nn(C(C)C)c4ncnc(N)c34)ccc2s1` [Compound 17], at PI3K alpha, the IC50 was above 1 µM.
As for `CNC(=O)Cn1nc(-c2ccc3nc(NC(C)=O)sc3c2)c2c(N)ncnc21` [Compound 18], the IC50 on PI3K delta and against PI3K alpha was above 1 µM throughout.
The compound `CC(=O)Nc1nc2ccc(-c3nn(C4CCOCC4)c4ncnc(N)c34)cc2s1` [Compound 19] yielded an IC50 on PI3K beta above 1 µM.
`CNC(=O)Nc1nc2ccc(-c3nn(C(C)C)c4ncnc(N)c34)cc2s1` [Compound 20] gave an IC50 against PI3K beta of at most 0.5 µM.
